{"source": "paper PMC8413131", "about": "(Oncogene, 2021)", "tested_on": "wild-type AR (WT-AR)", "test": "PSA luciferase reporter, WT-AR in 293 cells", "format": "cell-based", "conditions": "FBS conditions, 16 hours, Fig.2G", "data": [{"molecule": "CNC(=O)c1ccc(N2C(=S)N(c3ccc(C#N)c(C(F)(F)F)c3)C(=O)C2(C)C)cc1F", "note": "[Enza, enzalutamide]", "values": [{"measurement": "WT-AR transcriptional activity", "value": "suppress"}]}]}
